{
  "sequences": {"note": "Amino acid sequences for entries named in this document (tags omitted).", "UniProt P35363, whole entry": "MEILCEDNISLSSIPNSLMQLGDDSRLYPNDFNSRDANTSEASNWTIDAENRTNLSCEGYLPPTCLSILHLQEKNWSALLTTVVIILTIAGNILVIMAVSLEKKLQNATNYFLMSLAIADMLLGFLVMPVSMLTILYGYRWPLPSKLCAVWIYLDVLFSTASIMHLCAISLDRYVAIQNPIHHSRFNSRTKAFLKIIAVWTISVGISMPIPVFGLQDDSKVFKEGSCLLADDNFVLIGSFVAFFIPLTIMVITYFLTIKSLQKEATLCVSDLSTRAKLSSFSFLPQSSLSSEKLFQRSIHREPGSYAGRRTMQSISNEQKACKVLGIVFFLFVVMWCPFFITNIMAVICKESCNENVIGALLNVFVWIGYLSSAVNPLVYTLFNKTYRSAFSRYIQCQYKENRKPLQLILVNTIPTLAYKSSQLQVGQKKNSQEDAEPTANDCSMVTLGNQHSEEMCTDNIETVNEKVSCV"},
  "source": "patent US20250319095A1",
  "about": "“USE OF BENZO[…] INCREASE SENSITIVITY TO […] A CHRONIC SSRI REGIMEN” (Compass Pathfinder Limited, priority 2020, published 2025)",
  "key": {"5HT2A": {"target": "T1, 5HT2A (Mus musculus, UniProt P35363)", "T1 construct": "homogenates were prepared from frontal cortices sampled from groups E and F; from tissue; host or cells: mouse frontal cortex membranes (homogenate)", "assay": "[3H]MDL100907 binding in frontal cortical membranes (5HT2A Kd and Bmax)", "conditions": "24 h post final administration", "method": "To prepare the homogenate, frontal cortices from each animal were homogenized individually in 40 volumes (w/v) of ice cold assay buffer using a tight-fitting glass/Teflon homogenizer and centrifuged at 39,500×g for 10 min. The supernatant was discarded, and the pellet re-suspended in 40 volumes (w/v) of assay buffer and the tissue washed by centrifugation two more times. The final pellet was re-suspended in ice-cold assay buffer to 6.25 mg weight wet of tissue/ml and used immediately in the binding assay. Aliquots of final membrane preparations were also stored at −80 C until required for protein determination. All centrifugations will be carried out at 4° C.\nTo examine binding, the frontal cortical membranes (400 μl; equivalent to 2.5 mg wet weight of tissue/tube) were incubated with 50 μl of [3H] MDL 100907 (8 concentrations: 0.025, 0.05, 0.1, 0.2, 0.4, 0.8, 1.6, 3.2 nM) and either 50 μl of buffer (total binding) or 50 μl of 10 μM ketanserin (to define nonspecific binding) for 60 min at 25 C. […]\nMembrane bound radioactivity was recovered by filtration under vacuum through Skatron 11731 filters, presoaked in 0.5% polyethylenimine (PEI) using a Skatron cell harvester. Filters were rapidly washed with ice cold wash buffer (wash setting 9,9,0) and radioactivity determined by liquid scintillation counting (1 ml Packard MV Gold scintillator). […]"}, "[1]": {"conditions": "oral dose equivalence; cited from earlier work"}},
  "data": [
    {"compound": "CN1C(=O)CN=C(c2ccccc2)c2cc(Cl)ccc21", "note": "[Diazepam, diazepam]", "values": [
      {"measurement": "5HT2A binding, change with diazepam pretreatment", "setting": "5HT2A", "result": "trend increase"},
      {"measurement": "Relative Potency", "setting": "[1]", "result": 5, "unit": "mg"}
    ]}
  ]
}
